# Residue numbers refer to the chain shown, from its start. Entries after “also recorded” stand apart in the source; their conditions may differ.
# Chains of the proteins cited; added tags and fusions are not shown. Residues count along the entry.
# UniProt Q07817, 2-215: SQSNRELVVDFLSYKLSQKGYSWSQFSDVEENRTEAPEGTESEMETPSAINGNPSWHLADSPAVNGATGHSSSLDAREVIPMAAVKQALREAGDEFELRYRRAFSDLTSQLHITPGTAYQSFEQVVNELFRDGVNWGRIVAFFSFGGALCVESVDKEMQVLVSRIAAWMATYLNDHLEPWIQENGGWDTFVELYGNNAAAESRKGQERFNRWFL
# B1: AZ1: Fab clone selected against Bcl-xL + ABT-737 complex (antibody)
# heavy: EISEVQLVESGGGLVQPGGSLRLSCAASGFNLSYSSMHWVRQAPGKGLEWVASISPYSSYTSYADSVKGRFTISADTSKNTAYLQMNSLRAEDTAVYYCARGWVGMDYWGQGTLVTVSSASTKGPSVFPLAPSSKSTSGGTAALGCLVKDYFPEPVTVSWNSGALTSGVHTFPAVLQSSGLYSLSSVVTVPSSSLGTQTYICNVNHKPSNTKVDKKVEPKSCDKTHTGGSHHHHHH
# light: SDIQMTQSPSSLSASVGDRVTITCRASQSVSSAVAWYQQKPGKAPKLLIYSASSLYSGVPSRFSGSRSGTDFTLTISSLQPEDFATYYCQQYYWGFPSLFTFGQGTKVEIKRTVAAPSVFIFPPSDSQLKSGTASVVCLLNNFYPREAKVQWKVDNALQSGNSQESVTEQDSKDSTYSLSSTLTLSKADYEKHKVYACEVTHQGLSSPVTKSFNRGECGGSDYKDDDDK
# B2: AZ2: Fab clone selected against Bcl-xL + ABT-737 complex (antibody)
# heavy: EISEVQLVESGGGLVQPGGSLRLSCAASGFNIYSYYMHWVRQAPGKGLEWVAYISPYYSYTSYADSVKGRFTISADTSKNTAYLQMNSLRAEDTAVYYCARGYPWYGMDYWGQGTLVTVSSASTKGPSVFPLAPSSKSTSGGTAALGCLVKDYFPEPVTVSWNSGALTSGVHTFPAVLQSSGLYSLSSVVTVPSSSLGTQTYICNVNHKPSNTKVDKKVEPKSCDKTHTGGSHHHHHH
# light: B1 light with Y92V, Y93S, G95A, F96Y, S98Y, F100I
# B3: AZ3: Fab clone selected against Bcl-xL + ABT-737 complex (antibody)
# heavy: EISEVQLVESGGGLVQPGGSLRLSCAASGFNIYYSYMHWVRQAPGKGLEWVASISPYSSYTSYADSVKGRFTISADTSKNTAYLQMNSLRAEDTAVYYCARYGYSYYYYGALDYWGQGTLVTVSSASTKGPSVFPLAPSSKSTSGGTAALGCLVKDYFPEPVTVSWNSGALTSGVHTFPAVLQSSGLYSLSSVVTVPSSSLGTQTYICNVNHKPSNTKVDKKVEPKSCDKTHTGGSHHHHHH
# light: SDIQMTQSPSSLSASVGDRVTITCRASQSVSSAVAWYQQKPGKAPKLLIYSASSLYSGVPSRFSGSRSGTDFTLTISSLQPEDFATYYCQQGWSGPWLITFGQGTKVEIKRTVAAPSVFIFPPSDSQLKSGTASVVCLLNNFYPREAKVQWKVDNALQSGNSQESVTEQDSKDSTYSLSSTLTLSKADYEKHKVYACEVTHQGLSSPVTKSFNRGECGGSDYKDDDDK
# B4: AZ4: Fab clone selected against Bcl-xL + ABT-737 complex (antibody)
# heavy: EISEVQLVESGGGLVQPGGSLRLSCAASGFNIYSSSIHWVRQAPGKGLEWVASIYPYYGYTYYADSVKGRFTISADTSKNTAYLQMNSLRAEDTAVYYCARSWWPYGMDYWGQGTLVTVSSASTKGPSVFPLAPSSKSTSGGTAALGCLVKDYFPEPVTVSWNSGALTSGVHTFPAVLQSSGLYSLSSVVTVPSSSLGTQTYICNVNHKPSNTKVDKKVEPKSCDKTHTGGSHHHHHH
# light: SDIQMTQSPSSLSASVGDRVTITCRASQSVSSAVAWYQQKPGKAPKLLIYSASSLYSGVPSRFSGSRSGTDFTLTISSLQPEDFATYYCQQVPAFPITFGQGTKVEIKRTVAAPSVFIFPPSDSQLKSGTASVVCLLNNFYPREAKVQWKVDNALQSGNSQESVTEQDSKDSTYSLSSTLTLSKADYEKHKVYACEVTHQGLSSPVTKSFNRGECGGSDYKDDDDK
# How the values were obtained:
# BCL-xL/ABT-737 complex = molecular target: T1, BCL-xL/ABT-737 complex (Homo sapiens, UniProt Q07817); experiment: Biolayer interferometry, Fab binding to BCL-xL in the presence of ABT-737; settings: for KOFF / KON: ABT-737 1 μM present (+); for binding to BCL-xL in the presence of ABT-737: biolayer interferometry, ABT-737 1 μM
# T1 construct: C-terminally truncated BCL-xL (residues 2-215) with an N-terminal AviTag; made in house; host or cells: E. coli BL21(DE3), pMCSG7 vector
# Description: (§1) Biolayer interferometery data were measured using an Octet RED384 instrument (ForteBio). Biotinylated BCL-xL was immobilized on a Streptavidin (SA) biosensor using a 200 nM solution. Serial dilutions of Fabs in kinetics buffer (PBS, pH 7.4, 0.05% Tween-20, 0.2% BSA, 10 μM biotin) with small molecule (1 μM), peptide (5 μM), or vehicle (0.05% DMSO) were used as analyte. Affinity (KD) and kinetic parameters (kon and koff) were calculated from a global fit (1:1) of the data using the Octet RED384 software.
# BCL-xL (apo form) = molecular target: T2, BCL-xL (apo form) (Homo sapiens, UniProt Q07817); experiment: Biolayer interferometry, Fab binding to BCL-xL in the absence of ABT-737; settings: DMSO only; concentrations up to 5000 nM of Fab
# T2 construct: C-terminally truncated BCL-xL (residues 2-215) with an N-terminal AviTag; made in house; host or cells: E. coli BL21(DE3), pMCSG7 vector
# Description: as §1
# BCL-xL/ABT-263 complex = molecular target: T3, BCL-xL/ABT-263 complex (Homo sapiens, UniProt Q07817); experiment: Biolayer interferometry, Fab binding to BCL-xL in the presence of ABT-263; settings: compared with the BCL-xL/ABT-737 complex
# T3 construct: C-terminally truncated BCL-xL (residues 2-215) with an N-terminal AviTag; made in house; host or cells: E. coli BL21(DE3), pMCSG7 vector
# Description: as §1
# (§2) We hypothesized that the exquisite selectivity of our Fabs was the result of direct interactions of the Fab CDRs with parts of ABT-737. We reasoned that if this were the case, the Fab would bind less potently to other BCL-xL-ligand complexes. ABT-263 is an analog that binds with similar potency to the same conformation of BCL-xL as ABT-737 (RMSD=0.8) (FIG. 2A and FIG. 2B) (Tse, et al., Cancer Res., 68, 3421-3428 (2008)). To test our hypothesis, we measured the ability of AZ1, AZ2, and AZ3 to discriminate between ABT-737, ABT-263, and the native-ligand-derived Bak-peptide (Sattler, et al., Science, 275: 983986 (1997)) bound BCL-xL (FIG. 2C).
# [1] = molecular target: T4, BCL-xL/Bak peptide complex (Homo sapiens, UniProt Q07817); experiment: Biolayer interferometry, Fab binding to BCL-xL in the presence of Bak peptide; settings: peptide 5 μM
# T4 construct: C-terminally truncated BCL-xL (residues 2-215) with an N-terminal AviTag; made in house; host or cells: BCL-xL: E. coli BL21(DE3), pMCSG7; Bak peptide purchased (Anaspec AS-61616)
# Description: as §1, §2
Molecule,KOFF (BCL-xL/ABT-737 complex),KON (BCL-xL/ABT-737 complex),binding to BCL-xL in the presence of ABT-737 (BCL-xL/ABT-737 complex),binding to BCL-xL in the absence of ABT-737 (BCL-xL (apo form)),binding to the BCL-xL/ABT-263 complex (BCL-xL/ABT-263 complex),binding to the BCL-xL/Bak-peptide complex [1],selectivity for the ABT-737-bound form over DMSO only (BCL-xL/ABT-737 complex; compared with Fabs AZ1 and AZ3)
B1,4.0 10^−4 s^−1,1.3 10^5 M^−1s^−1,potent and reversible binding,no detectable binding; also recorded: no significant binding,dramatically weaker binding,no detectable binding,
B2,2.6 10^−4 s^−1,1.1 10^5 M^−1s^−1,potent and reversible binding,no detectable binding; also recorded: no significant binding,dramatically weaker binding,no detectable binding,
B3,20.9 10^−4 s^−1,2.2 10^5 M^−1s^−1,potent binding,no detectable binding; also recorded: negligible binding,dramatically weaker binding,no detectable binding,
B4,,,less potently,,,,less selectivity

# From patent US11939379B2, “Antibody chemically induced dimerizer (AbCID) as molecular switches for regulating cellular therapies” (The Regents of the University of California, priority 2017, dated 2024)
